scFv variants of Ab-91 (heavy chain) against a SARS-CoV-2 spike peptide

The measurements come from Engelhart et al. 2022 (doi:10.1038/s41597-022-01779-4) through the FLAb antibody collection.

Binding partner: SARS-CoV-2 spike HR2 peptide, sequence PDVDLGDISGINAS.

The variants keep the light chain, the linker and the frameworks of Ab-91 (scFv order VL, three GGGGS repeats, VH).
VL: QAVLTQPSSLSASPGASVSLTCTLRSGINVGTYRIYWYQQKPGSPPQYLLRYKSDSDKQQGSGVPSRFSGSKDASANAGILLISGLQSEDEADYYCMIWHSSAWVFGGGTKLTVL
VH: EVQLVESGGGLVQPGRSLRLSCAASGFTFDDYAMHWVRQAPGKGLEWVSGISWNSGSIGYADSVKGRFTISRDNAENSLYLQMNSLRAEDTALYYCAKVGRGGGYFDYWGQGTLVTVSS

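The parent was found by panning a naive human phage display library on the peptide. AAYL51 was designed without a model: most single CDR substitutions and a random sample of double and triple ones. The assay is AlphaSeq: two haploid yeast populations carry antibody and antigen on their surface. Pairs that bind mate more often; barcode pairs of the diploids are counted by sequencing. Each replicate has its own calibration line, from reference interactions of the BCL2 family. There are three technical replicates.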

The parent's heavy chain CDRs are GFTFDDYAMH, GISWNSGSIGYADSVK, VGRGGGYFDY; each variant's own CDRs replace them letter for letter.
Affinities are written as log10 Kd with Kd in nM; a lower number is a better binder.
A mean of the replicates is given; it leaves out those without a signal.
Where no diploid with the target was found in that replicate, the entry reads "n.d.": below detection, most likely a poor binder, though not proof of it.

| CDR-H1 | CDR-H2 | CDR-H3 | log10 Kd (nM) by replicate | mean log10 Kd (nM) | empty controls |
|---|---|---|---|---|---|
| GFTPDDYAMH | GISWNSWDIGYADSVK | VGRGGGYFDY | n.d. / n.d. / n.d. | n.d. | 0/9 |
| GFDFDMYAMH | GISWNSGSIGYADSVW | VGRGGGYFDY | 0.96 / 0.85 / 0.18 | 0.66 | 1/9 (3.29) |
| GFTPDDYAMH | GISWNSGSIGYADSVK | VGRNGGYFWY | 4.16 / n.d. / n.d. | 4.16 | 1/9 (5.24) |
| KFTTDDYAMH | GISWNSGSIGYADSVK | VGRGGGDFDY | n.d. / n.d. / n.d. | n.d. | 2/9 (3.99) |
| GYPFDDYAMH | GISCNSGSIGYADSVK | VGRGGGYFDY | n.d. / 3.52 / 2.88 | 3.20 | 2/9 (4.01) |
| GFTFDDHAMH | GISWNSGSIGYEDSVK | VGRGCGYFDY | 1.57 / 1.63 / 1.23 | 1.48 | 1/9 (3.40) |
| GFIFDDSAMH | GNSWNSGSIGYADSVK | VGRGGGYFDY | 4.17 / 5.19 / 4.20 | 4.52 | 3/9 (4.30) |
| GFTFDDYAFH | GISWNSGSIMYAMSVK | VGRGGGYFDY | n.d. / n.d. / n.d. | n.d. | 2/9 (3.31) |
| GFTFDDYHMH | GISWNSGSIGYADSRM | VGRGGGYFDY | n.d. / n.d. / n.d. | n.d. | 0/9 |
| GFTFDDYAMH | GISWNSGVIGYAASVK | VGRGGGYFDY | 5.50 / n.d. / n.d. | 5.50 | 0/9 |
| GFTFDAYAMH | GISWWSGSIGYADRVK | VGRGGGYFDY | n.d. / n.d. / n.d. | n.d. | 0/9 |
| GFTHDDYAMH | GFSWNSGSIGNADSVK | VGRGGGYFDY | 4.68 / n.d. / n.d. | 4.68 | 1/9 (4.81) |
| GFTFDDYAMH | GISWNMGPIMYADSVK | VGRGGGYFDY | n.d. / 4.24 / n.d. | 4.24 | 1/9 (3.78) |
| GFHHDDYAMH | GISWNSGQIGYADSVK | VGRGGGYFDY | 4.09 / 4.49 / n.d. | 4.29 | 1/9 (3.99) |
| GDTFDDYADH | GISWNSGYIGYADSVK | VGRGGGYFDY | n.d. / n.d. / n.d. | n.d. | 0/9 |
| GFTADDYAMH | GISWNSLSIGYADSVK | VGAGGGYFDY | 3.70 / 3.42 / 5.03 | 4.05 | 2/9 (4.57) |
| GFTFDDYAMW | GIFWNSGSIGYADSVK | AGRGGGYFDY | n.d. / n.d. / n.d. | n.d. | 0/9 |
| GFTFDDYAMH | GISWNSGSIGYADSVK | VGRGGWYFSY | 6.26 / 4.90 / 4.99 | 5.38 | 7/9 (4.93) |
| GFTVGDYAMH | GISWNSGSIGYADSVK | VGRGGGYFDY | 2.00 / 3.36 / 2.24 | 2.54 | 0/9 |
| GFTFDDYAMH | GISINSGSIGQADSVK | IGRGGGYFDY | 4.86 / 4.51 / n.d. | 4.68 | 4/9 (4.63) |
| GFTFDDYAMH | GISWNSGSIGYIDSCK | KGRGGGYFDY | 3.94 / n.d. / n.d. | 3.94 | 3/9 (4.17) |
| GFTFEDYAMH | GISWNSGFIGYADSVK | RGRGGGYFDY | 5.03 / n.d. / n.d. | 5.03 | 0/9 |
| GFTFDDYAVH | GISWNSGSIGYADSVK | VGRGVGYFDY | 6.26 / n.d. / 5.45 | 5.86 | 7/9 (5.05) |
| GFTFDDWAMH | GISWNSGSIGPADSVK | VGRGGAYFDY | n.d. / n.d. / n.d. | n.d. | 0/9 |
| GFTFDDYAMR | GISWNSGSIGYADSVD | VGRGGGYFDY | 4.60 / 6.27 / 5.93 | 5.60 | 8/9 (4.92) |
| GFTFDDYHMH | GISWNSGSIGYADSVK | KGRGGGYFDY | 2.28 / 2.43 / 2.15 | 2.28 | 0/9 |
| GFTFDDYAMH | IDTWNSGSIGYADSVK | VGRGGGYFDY | 5.53 / n.d. / n.d. | 5.53 | 1/9 (3.74) |
| GFTFDDYAME | GISWNSGSIGGADSVK | VGRGGGYFDY | n.d. / 3.71 / n.d. | 3.71 | 2/9 (4.09) |
| GFTFMDYAMH | GISWNSGSIGYADSVK | VIMGGGYFDY | 4.96 / n.d. / n.d. | 4.96 | 2/9 (3.60) |
| GMTFHDYAMH | GISWNSGSIGYADAVK | VGRGGGYFDY | 1.83 / 2.34 / 1.95 | 2.04 | 6/9 (4.44) |
| GFTFDDYVMH | GISDNSPSIGYADSVK | VGRGGGYFDY | n.d. / n.d. / 2.32 | 2.32 | 0/9 |
| GFTFDDYAMH | GISWNSGSQQYADSVK | VGRGGGYFDQ | 5.52 / n.d. / n.d. | 5.52 | 3/9 (4.19) |

Extract of 3 entries:

{"CDR-H1": "GFTFDDYHMH", "CDR-H2": "GISWNSGSIGYADSRM", "CDR-H3": "VGRGGGYFDY", "log10 Kd (nM) by replicate": "n.d. / n.d. / n.d.", "mean log10 Kd (nM)": "n.d.", "empty controls": "0/9"}
{"CDR-H1": "GDTFDDYADH", "CDR-H2": "GISWNSGYIGYADSVK", "CDR-H3": "VGRGGGYFDY", "log10 Kd (nM) by replicate": "n.d. / n.d. / n.d.", "mean log10 Kd (nM)": "n.d.", "empty controls": "0/9"}
{"CDR-H1": "GFTFDDYAME", "CDR-H2": "GISWNSGSIGGADSVK", "CDR-H3": "VGRGGGYFDY", "log10 Kd (nM) by replicate": "n.d. / 3.71 / n.d.", "mean log10 Kd (nM)": "3.71", "empty controls": "2/9 (4.09)"}

Parent in this assay: reference entry 1.86, copy in this library 0.88.
Empty control strains, which show no peptide, gave a signal in 21% of pairings with library AAYL51; the median was 4.54 and 95% of these signals were weaker than 3.26. No background was subtracted. The control count says in how many pairings with the empty strains this scFv gave a signal, with their mean in brackets.